Earlier results on 26 molecules are cited in PMC11938273 (Journal of Chemical Information and Modeling, 2025).

The conditions of the data set: positive CNS status indicates BBB penetration; ground truth from published human or, if not available, murine brain biodistribution data incl. blocking studies; ref Table S1 column Radiolabeled (SI refs 1-108); cited from earlier work.
With “(4R,4aR,10bR)-9-hydroxy-4-propyl-3,4,4a,5,6,10b-hexahydro2H-naphtho[1,2-b] [1, 4]oxazin-4-ium”, the CNS status result is on record as “Positive”.

On to “(3α,4α,5α,8α,9β,11α,13α,14β,16β,17Z)- 16-Acetoxy-3,11-dihydroxy-4,8,14- trimethyl-18-norcholesta-17,24-dien- 21-oic acid”, for which the CNS status entry is “Negative”.

For the molecule “(1-methylpiperidin-4-yl)methyl 8-amino-7-chloro-2,3-dihydrobenzo[b][1,4]dioxine-5-carboxylate”, the CNS status entry is listed as “Positive”. In the case of `CO[C@]12CC[C@@]3(C[C@@H]1C(C)(C)O)[C@H]1Cc4ccc(O)c5c4[C@@]3(CCN1CC1CC1)[C@H]2O5`, the CNS status entry is listed as “Positive”. In the case of “3-Fluoro-5-(pyridin-2-ylethynyl)benzonitrile”, the CNS status result is recorded as “Positive”.

On to “(1RS,2RS,4SR,5SR,7SR,9R)-9-butyl-7-(((SR)-3-hydroxy-2-phenylpropanoyl)oxy)-9-methyl-3-oxa-9-azatricyclo[3.3.1.02,4]nonan-9-ium”, for which the CNS status result is recorded as “Negative”. Take “8-(3-fluoropropyl)-3-(4-iodophenyl)-, methyl ester, (1R,2S,3S,5S)-”: the CNS status result is “Positive”. As for “4-Fluoro-N-(2-(4-(2-methoxyphenyl)piperazin-1-yl)ethyl)- N-(pyridin-2-yl)benzamide”, the CNS status result is listed as “Positive”. With “(S)-5-Bromo-N-((1-ethylpyrrolidin-2-yl)methyl)-2,3- dimethoxybenzamide”, the CNS status result is reported as “Positive”. With “(1R,2S,3S,5S)-2-fluoroethyl 8-((E)-3-iodoallyl)-3-(4-iodophenyl)- 8-azabicyclo[3.2.1]octane-2-carboxylate”, the CNS status result was “Positive”. On to “8-Azabicyclo[3.2.1]octane-2-carboxylic acid”, for which the CNS status result was “Positive”. Consider “(2-{4-[(4-Chlorophenyl)(phenyl)methyl]-1-piperazinyl}ethoxy)acetic acid”, for which the CNS status result was “Negative”.

As for “(S)-5-(benzofuran-7-yl)-8-chloro-3-methyl-2,3,4,5-tetrahydro-1H-benzo[d]azepin-7-ol”, the CNS status entry is reported as “Positive”.

As for “2-(1-(6-((2-Fluoroethyl)(methyl)amino)naphthalen2-yl)ethylidene)malononitrile”, the CNS status entry is listed as “Positive”.

As to “N-(2-fluoroethyl)-2-(2-nitro-1H-imidazol-1-yl)acetamide”, the CNS status entry is “Positive”. Consider “2,3-Dimethoxyphenyl)(1-(4-fluorophenethyl) piperidin-4-yl)methanol”, for which the CNS status result is “Positive”. With “(S)-8-Chloro-3-methyl-5-phenyl-2,3,4,5-tetrahydro1H-benzo[d]azepin-7-ol”, the CNS status result is “Positive”. Turning to “2-Ethoxy-4-[2-({(1S)-3-methyl-1-[2- (1-piperidinyl)phenyl]butyl}amino)- 2-oxoethyl]benzoic acid”, the CNS status entry is listed as “Negative”. On to “(E)-3-((6-methylpyridin-2-yl)ethynyl)cyclohex-3- enone O-methyl oxime”, for which the CNS status result was “Positive”. As to “(E)-1,3,5-trimethyl-6-(3,4,5-trimethoxystyryl)-1,4a,5,7a-tetrahydro-2H-pyrrolo[2,3-d]pyrimidine-2,4(3H)-dione”, the CNS status result was “Positive”. Consider “3-(2-Fluoroethyl)-8-(4-(4-fluorophenyl)-4-oxobutyl)-1-phenyl1,3,8-triazaspiro[4.5]decan-4-one”, for which the CNS status result is reported as “Positive”. Regarding “(5S)-5-(1-Benzofuran-7-yl)-8-chloro-2,3,4,5-tetrahydro-1H-3-benzazepin-7-ol”, the CNS status entry is “Positive”. Turning to “8-Cyclopentyl-3-(3-fluoropropyl)-1-propyl-1H-purine-2,6(3H,7H)-dione”, the CNS status result is given as “Positive”. Consider “1-(1-(4-(4-Fluorophenyl)-4-oxobutyl)piperidin-4-yl)-3-methyl1H-benzo[d]imidazol-2(3H)-one”, for which the CNS status result was “Positive”. “(6S,10bR)-6-(4-(methylthio)phenyl)-1,2,3,5,6,10bhexahydropyrrolo[2,1-a]isoquinoline”: the CNS status result is recorded as “Positive”. Turning to “(6S,10bR)-6-(4-((fluoromethyl)thio)phenyl)-1,2,3,5,6,10bhexahydropyrrolo[2,1-a]isoquinoline”, the CNS status result was “Positive”.
